Source: patent publication US12202843B2, “Muscarinic receptor agonists” (Nxera Pharma UK Limited, priority 2014, dated 2025)

Sequences of proteins named here, by UniProt entry; tags and fusion partners are left off.
UniProt P20309, whole entry: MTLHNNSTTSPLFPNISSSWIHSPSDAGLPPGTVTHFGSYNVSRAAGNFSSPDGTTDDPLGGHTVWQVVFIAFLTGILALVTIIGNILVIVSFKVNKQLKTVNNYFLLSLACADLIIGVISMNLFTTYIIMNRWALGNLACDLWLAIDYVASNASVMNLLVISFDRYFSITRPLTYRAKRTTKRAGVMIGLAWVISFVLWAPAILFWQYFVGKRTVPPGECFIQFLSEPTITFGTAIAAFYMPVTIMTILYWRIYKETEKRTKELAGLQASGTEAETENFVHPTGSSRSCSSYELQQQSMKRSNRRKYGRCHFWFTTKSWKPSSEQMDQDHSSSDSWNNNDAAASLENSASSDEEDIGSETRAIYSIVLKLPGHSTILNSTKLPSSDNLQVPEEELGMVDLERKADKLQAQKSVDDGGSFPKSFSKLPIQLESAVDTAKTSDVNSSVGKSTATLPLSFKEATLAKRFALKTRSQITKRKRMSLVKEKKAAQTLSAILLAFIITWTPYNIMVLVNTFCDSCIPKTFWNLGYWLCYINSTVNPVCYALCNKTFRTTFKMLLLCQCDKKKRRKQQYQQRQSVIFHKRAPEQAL
UniProt P08173, whole entry: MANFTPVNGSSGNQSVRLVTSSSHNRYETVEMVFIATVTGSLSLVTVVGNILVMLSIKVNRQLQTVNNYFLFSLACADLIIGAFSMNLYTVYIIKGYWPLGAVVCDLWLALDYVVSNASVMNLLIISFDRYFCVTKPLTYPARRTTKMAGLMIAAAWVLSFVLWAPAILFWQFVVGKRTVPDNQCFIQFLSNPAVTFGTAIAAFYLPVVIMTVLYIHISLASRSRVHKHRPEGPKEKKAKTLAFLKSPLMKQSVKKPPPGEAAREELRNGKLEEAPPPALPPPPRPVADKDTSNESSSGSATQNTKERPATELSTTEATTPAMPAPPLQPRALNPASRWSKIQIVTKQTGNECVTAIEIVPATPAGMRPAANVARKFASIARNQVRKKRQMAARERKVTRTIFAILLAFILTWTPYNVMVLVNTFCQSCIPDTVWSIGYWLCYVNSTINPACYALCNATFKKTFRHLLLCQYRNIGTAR
UniProt P08172, whole entry: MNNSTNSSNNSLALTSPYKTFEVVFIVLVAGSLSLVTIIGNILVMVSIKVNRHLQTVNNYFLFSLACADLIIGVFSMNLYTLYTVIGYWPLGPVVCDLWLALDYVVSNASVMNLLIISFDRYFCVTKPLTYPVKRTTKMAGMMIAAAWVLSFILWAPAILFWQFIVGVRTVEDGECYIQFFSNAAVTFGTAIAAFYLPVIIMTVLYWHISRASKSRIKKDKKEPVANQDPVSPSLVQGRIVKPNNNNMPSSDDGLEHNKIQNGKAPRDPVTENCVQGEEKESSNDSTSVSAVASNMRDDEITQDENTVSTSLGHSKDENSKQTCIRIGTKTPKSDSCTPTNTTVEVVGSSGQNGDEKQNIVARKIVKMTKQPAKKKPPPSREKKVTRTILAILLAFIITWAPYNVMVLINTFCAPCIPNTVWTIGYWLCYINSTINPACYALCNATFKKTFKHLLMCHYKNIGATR
UniProt P11229, whole entry: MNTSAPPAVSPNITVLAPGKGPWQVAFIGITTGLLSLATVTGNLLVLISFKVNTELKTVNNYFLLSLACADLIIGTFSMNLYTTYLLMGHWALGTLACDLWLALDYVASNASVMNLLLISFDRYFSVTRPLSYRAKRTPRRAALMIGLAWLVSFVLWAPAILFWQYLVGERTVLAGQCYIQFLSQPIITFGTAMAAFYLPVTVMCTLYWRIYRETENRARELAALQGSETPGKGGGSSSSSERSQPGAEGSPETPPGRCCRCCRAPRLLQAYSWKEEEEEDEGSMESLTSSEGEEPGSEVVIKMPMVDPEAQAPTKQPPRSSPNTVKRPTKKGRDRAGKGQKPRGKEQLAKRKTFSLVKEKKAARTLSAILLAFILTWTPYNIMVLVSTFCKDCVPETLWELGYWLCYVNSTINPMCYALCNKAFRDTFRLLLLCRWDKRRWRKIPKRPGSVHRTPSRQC

Assays:
[1] = biological target: human muscarinic M3 receptor (Homo sapiens, UniProt P20309); test: Alphascreen Surefire phospho-ERK1/2 functional assay, M3; format: cell-based
[2] = biological target: human muscarinic M4 receptor (Homo sapiens, UniProt P08173); test: Alphascreen Surefire phospho-ERK1/2 functional assay, M4; format: cell-based
[3] = biological target: human muscarinic M2 receptor (Homo sapiens, UniProt P08172); test: Alphascreen Surefire phospho-ERK1/2 functional assay, M2; format: cell-based
[4] = biological target: human muscarinic M1 receptor (Homo sapiens, UniProt P11229); test: Alphascreen Surefire phospho-ERK1/2 functional assay, M1

## CCOC(=O)N1CC2CC(C1)C(N1CCC3(CC1)CNC(=O)O3)C2 (single isomer, unassigned)
[1]; CHO cells stably expressing human M3
  pEC50 M3: 4.7
[1]; CHO cells stably expressing human M3, relative to ACh
  % Emax cf. ACh, M3: 2%
[2]; CHO cells stably expressing human M4
  pEC50 M4: 4.7
[2]; CHO cells stably expressing human M4, relative to ACh
  % Emax cf. ACh, M4: 5%
[3]; CHO cells stably expressing human M2
  pEC50 M2: 4.7
[3]; CHO cells stably expressing human M2, relative to ACh
  % Emax cf. ACh, M2: 1%
[4]; CHO cells stably expressing human M1
  pEC50 M1: 7.4
[4]; CHO cells stably expressing human M1, relative to ACh
  % Emax cf. ACh, M1: 46%
